In PubChem BioAssay (NCI):
The entries are a selection whose mix differs from that of the whole data set. A structure can be active in one record and inactive in another. Calls of active or inactive are those of the source. No stated cut-off is given here; in the data, active means growth inhibition above about 70%; inactive means the rest.

Tests used:
[1] = NCI Yeast Anticancer Drug Screen. Data for the rad50 strain (AID 155);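 further: 0% = growth of vehicle-only cultures of the same strain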; conditions: S. cerevisiae rad50 strain growth inhibition, stronger effect = higher value
[2] = NCI Yeast Anticancer Drug Screen. Data for the mec2-1 strain (AID 157); conditions: S. cerevisiae mec2-1 strain, stronger effect = higher value
[3] = NCI Yeast Anticancer Drug Screen. Data for the sgs1 mgt1 strain (AID 161);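 further: 0% = growth of cultures given vehicle only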; conditions: S. cerevisiae sgs1 mgt1 strain, stronger effect = higher value
[4] = NCI Yeast Anticancer Drug Screen. Data for the cln2 rad14 strain (AID 165);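 further: 0% = growth equal to vehicle treated cultures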; conditions: S. cerevisiae cln2 rad14 strain, stronger effect = higher value
[5] = NCI Yeast Anticancer Drug Screen. Data for the bub3 strain (AID 167); conditions: S. cerevisiae bub3 mutant strain, stronger effect = higher value
[6] = NCI Yeast Anticancer Drug Screen. Data for the mlh1 rad18 strain (AID 175); conditions: S. cerevisiae mlh1 rad18 strain growth inhibition, stronger effect = higher value
[7] = at 5.0 µM (retest, dose inferred, filed as 0.5)
[8] = at 50.0 µM (retest, dose inferred, filed as 5.0)

Measured: growth inhibition

CCN1CCN(CCCl)CC1
inactive: [1]; [7] -4% | [1]; [8] 4% | [1]; at 50.0 µM 67.8% | [2]; [7] 4% | [2]; [8] -2% | [3]; [7] 0% | [3]; [8] 2% | [4]; [7] 5% | [4]; [8] -10% | [5]; [7] 3% | [5]; [8] -4% | [5]; at 50.0 µM 7.35% | [6]; [7] -4% | [6]; [8] 8%
active: [2]; at 50.0 µM 77.4% | [3]; at 50.0 µM 80.5% | [4]; at 50.0 µM 78.8% | [6]; at 50.0 µM 92.8%

FC1(F)SC2C(C1(F)F)C1(Cl)C(Cl)=C(Cl)C2(Cl)C1(Cl)Cl (centres undefined)
active: [1]; at 3.7 µM 86% | [1]; at 11.0 µM 98% | [1]; at 33.0 µM 98% | [1]; [8] 99% | [1]; at 50.0 µM 98.7% | [1]; at 100.0 µM 98% | [2]; at 3.7 µM 90% | [2]; at 11.0 µM 99% | [2]; at 33.0 µM 98% | [2]; [8] 99% | [2]; at 50.0 µM 99.1% | [2]; at 100.0 µM 98% | [3]; [8] 99% | [3]; at 50.0 µM 99.2% | [4]; [7] 88% | [4]; [8] 99% | [4]; at 50.0 µM 99% | [5]; at 3.7 µM 85% | [5]; at 11.0 µM 99% | [5]; at 33.0 µM 98% | [5]; [8] 99% | [5]; at 50.0 µM 98.8% | [5]; at 100.0 µM 98% | [6]; [7] 70% | [6]; [8] 99% | [6]; at 50.0 µM 99%
inactive: [1]; at 1.2 µM 13% | [1]; [7] 66% | [2]; at 1.2 µM 13% | [2]; [7] 47% | [3]; [7] 40% | [5]; at 1.2 µM 9% | [5]; [7] 7%

O=[N+]([O-])C1([N+](=O)[O-])CC2(Cc3c1no[n+]3[O-])OCCO2
inactive: [1]; [7] 28% | [2]; [7] 19% | [3]; [7] 40% | [4]; [7] 16% | [5]; [7] 8% | [6]; [7] 26%
active: [1]; [8] 98% | [1]; at 50.0 µM 91.3% | [2]; [8] 96% | [2]; at 50.0 µM 92.4% | [3]; [8] 99% | [3]; at 50.0 µM 92.3% | [4]; [8] 71% | [4]; at 50.0 µM 89.3% | [5]; [8] 97% | [5]; at 50.0 µM 92% | [6]; [8] 99% | [6]; at 50.0 µM 90.9%

C[CH2][Sn]([C]#N)([CH2]C)[CH2]C
inactive: [1]; [7] -108% | [2]; [7] -43% | [3]; [7] -51% | [4]; [7] -60% | [4]; [8] 46% | [5]; [7] -64% | [6]; [7] -117%
active: [1]; [8] 85% | [1]; at 50.0 µM 94.8% | [2]; [8] 86% | [2]; at 50.0 µM 97.3% | [3]; [8] 89% | [3]; at 50.0 µM 95% | [4]; at 50.0 µM 83.8% | [5]; [8] 91% | [5]; at 50.0 µM 92.5% | [6]; [8] 85% | [6]; at 50.0 µM 95.2%

ClCCN(Cc1ccc(Cl)cc1)Cc1ccc(Cl)cc1
inactive: [1]; [7] 14% | [2]; [7] 9% | [3]; [7] 17% | [4]; [7] 9% | [5]; [7] 11% | [6]; [7] 31%
active: [1]; [8] 97% | [1]; at 50.0 µM 97.7% | [2]; [8] 98% | [2]; at 50.0 µM 96.5% | [3]; [8] 98% | [3]; at 50.0 µM 98.5% | [4]; [8] 98% | [4]; at 50.0 µM 97.9% | [5]; [8] 97% | [5]; at 50.0 µM 98.5% | [6]; [8] 97% | [6]; at 50.0 µM 98%

CC(=O)OC1(C)CC(=O)OCC23CCC(C)=CC2OC2CC(OC(=O)/C=C/C=C/C(C(C)O)OCC1O)C3(C)C21CO1 (centres undefined)
inactive: [1]; [7] 15% | [2]; [7] 12% | [3]; [7] 4% | [4]; [7] 34% | [5]; [7] 3% | [6]; [7] 15%
active: [1]; [8] 96% | [1]; at 50.0 µM 90% | [2]; [8] 96% | [2]; at 50.0 µM 93.6% | [3]; [8] 97% | [3]; at 50.0 µM 92.2% | [4]; [8] 96% | [4]; at 50.0 µM 90.4% | [5]; [8] 96% | [5]; at 50.0 µM 91.7% | [6]; [8] 95% | [6]; at 50.0 µM 90.7%

COc1cccc(C[N+](C)(CCCl)CCCl)c1[N+](=O)[O-]
active: [1]; at 33.0 µM 72% | [1]; at 50.0 µM 76% | [1]; at 100.0 µM 93% | [6]; [8] 73% | [6]; at 50.0 µM 74.3%
inactive: [1]; at 1.2 µM 14% | [1]; at 3.7 µM 9% | [1]; [7] 22% | [1]; at 11.0 µM 23% | [1]; [8] 62% | [2]; at 1.2 µM 11% | [2]; at 3.7 µM 9% | [2]; [7] -1% | [2]; at 11.0 µM 8% | [2]; at 33.0 µM 23% | [2]; [8] 22% | [2]; at 50.0 µM 30.2% | [2]; at 100.0 µM 69% | [3]; [7] 5% | [3]; [8] 14% | [3]; at 50.0 µM 34.1% | [4]; [7] -1% | [4]; [8] 59% | [4]; at 50.0 µM 52.4% | [5]; at 1.2 µM -4% | [5]; at 3.7 µM -7% | [5]; [7] 4% | [5]; at 11.0 µM -11% | [5]; at 33.0 µM -4% | [5]; [8] 9% | [5]; at 50.0 µM 2.1% | [5]; at 100.0 µM -3% | [6]; [7] 14%

C1=C(CCc2ccccc2)c2ccc3ccccc3c2CC1
active: [1]; [8] 82% | [1]; at 50.0 µM 91.8% | [2]; [8] 91% | [2]; at 50.0 µM 95% | [3]; [8] 87% | [3]; at 50.0 µM 93.2% | [4]; [8] 83% | [4]; at 50.0 µM 86.1% | [5]; [8] 87% | [5]; at 50.0 µM 84.9% | [6]; [8] 87% | [6]; at 50.0 µM 92.7%
inactive: [1]; [7] 27% | [2]; [7] 20% | [3]; [7] 48% | [4]; [7] 4% | [5]; [7] 50% | [6]; [7] 25%
